Target: endothelin converting enzyme (ECE) (Sus scrofa, UniProt F1SU04)
Assay: "ECE" assay with porcine aortic "ECE" prep, fluorogenic substrate Suc-Ile-Ile-Trp-MCA
Assay type: biochemical
Details: pH 7
Description: IC50 values were determined as follows:
Porcine Aortic "ECE" Prep
Porcine aortas (22-25) were obtained fresh from a local slaughterhouse and delivered in cold PBS on ice. The aortas were cut open, rinsed with cold PBS and the endothelial cell layer scraped into cold PBS using a scalpel. The endothelial cells were pelleted by centrifugation, rinsed once with cold PBS, and repelleted. The pellet was lysed by addition of 10 volumes of 10 mM Tris-HCl, pH 7.0, containing protease inhibitors and DTS, followed by brief sonication and homogenization. The lysate was centrifuged at 100,000 g for 1 hour and the supernatant applied to a MONOQ FPLC anion exchange column equilibrated in 10 mM Tris-HCl, pH 7.0 (buffer A) which was then developed with an increasing gradient of NaCl in buffer A. The active fractions were aliquoted and stored at -70° C.
The ECE assay was performed in 96-well microplates in a total volume of 200μ/well. The assay cocktail contains 100 mM Tris-HCl, pH 7.0, 20 mM CaCl2, 80 μM substrate (Suc-Ile-Ile-Trp-MCA), enzyme and test compounds. […] The assay was incubated overnight at 37° C. and the fluorescence intensity caused by the release of AMC was determined using a fluorescence microplate reader (EX360 nm/EM460 nm). IC50 values for compounds were determined by constructing concentration-effect curves for the inhibition of enzyme activity. […]

Chains of the proteins cited; added tags and fusions are not shown.
UniProt F1SU04, entry or part of it: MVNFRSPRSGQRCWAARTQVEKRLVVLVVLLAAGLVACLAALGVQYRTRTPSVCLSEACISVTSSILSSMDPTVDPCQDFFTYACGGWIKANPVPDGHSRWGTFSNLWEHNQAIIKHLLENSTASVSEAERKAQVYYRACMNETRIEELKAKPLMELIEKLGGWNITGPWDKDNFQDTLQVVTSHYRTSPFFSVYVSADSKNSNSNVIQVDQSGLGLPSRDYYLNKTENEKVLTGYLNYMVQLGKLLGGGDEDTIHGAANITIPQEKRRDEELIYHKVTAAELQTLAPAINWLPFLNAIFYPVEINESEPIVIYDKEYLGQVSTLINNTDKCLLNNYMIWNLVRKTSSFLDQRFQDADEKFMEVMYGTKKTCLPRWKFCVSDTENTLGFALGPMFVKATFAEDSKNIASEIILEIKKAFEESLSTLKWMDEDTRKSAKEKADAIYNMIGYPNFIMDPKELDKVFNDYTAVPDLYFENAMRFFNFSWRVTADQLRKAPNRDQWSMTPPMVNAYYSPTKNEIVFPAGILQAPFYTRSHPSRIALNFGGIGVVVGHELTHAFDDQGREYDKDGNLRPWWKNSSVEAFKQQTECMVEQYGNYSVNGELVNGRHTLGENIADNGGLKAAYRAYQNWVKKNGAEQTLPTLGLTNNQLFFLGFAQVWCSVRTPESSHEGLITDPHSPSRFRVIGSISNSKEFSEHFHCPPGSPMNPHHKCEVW

“N-Benzyloxycarbonyl-L-isoleucyl-L-isoleucine-L-N-[1-[1-hydroxy(1-oxiranyl)methyl-2-(phenyl)ethyllamide [Example 44]” showed an IC50 of 10 µM.
